Chains of the proteins cited; added tags and fusions are not shown. Residues count along the entry.
UniProt P28845, 24-287: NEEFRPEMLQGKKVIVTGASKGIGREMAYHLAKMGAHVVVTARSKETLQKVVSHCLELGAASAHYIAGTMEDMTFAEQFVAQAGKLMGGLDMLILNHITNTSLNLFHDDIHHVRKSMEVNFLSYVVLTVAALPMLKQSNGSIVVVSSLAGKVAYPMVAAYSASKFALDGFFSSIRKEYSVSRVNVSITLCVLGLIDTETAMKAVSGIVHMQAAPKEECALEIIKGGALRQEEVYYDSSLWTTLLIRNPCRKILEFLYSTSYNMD

In patent US8871208B2, “11-β-hydroxysteroid dehydrogenase type 1 (11β-HSD1) inhibitors and uses thereof” (AbbVie Inc., priority 2009, dated 2014):

What was measured:
[1] = biological target: T1, truncated human 11β-HSD-1 enzyme (24-287AA) (Homo sapiens, UniProt P28845); experiment: Human 11β-HSD-1 enzymatic SPA assay; type: biochemical
T1 construct: truncated human 11β-HSD-1 enzyme (24-287AA); made in house; host or cells: E. coli (lysate)
Procedure: (§1) The ability of test compounds to inhibit human 11β-HSD-1 enzymatic activity in vitro was evaluated in a Scintillation Proximity Assay (SPA). […] The reaction was stopped by adding a non-specific 11β-HSD inhibitor, 18β-glycyrrhetinic acid. The tritiated cortisol was captured by a mixture of an anti-cortisol monoclonal antibody and SPA beads coated with anti-mouse antibodies. The reaction plate was shaken at room temperature and the radioactivity bound to SPA beads was then measured on a β-scintillation counter. The 11β-HSD-1 assay was carried out in 96-well microtiter plates in a total volume of 220 μl. […] In order to drive the reaction in the forward direction, 1 mM G-6-P was also added. Solid compound was dissolved in DMSO to make a 10 mM stock followed by a subsequent 10-fold dilution with 3% DMSO in Tris/EDTA buffer (pH 7.4). 22 μl of titrated compounds was then added in triplicate to the substrate. Reactions were initiated by the addition of 10 μl of 0.1 mg/ml E. coli lysates overexpressing 11β-HSD-1 enzyme. […] After shaking for 30 minutes, plates were read on a liquid scintillation counter Topcount. Percent inhibition was calculated based on the background and the maximal signal. […] Percent of inhibition of each compound was calculated relative to the maximal signal and IC50 curves were generated. […]

[2] = biological target: T2, human 11β-HSD-2 (Homo sapiens, UniProt P80365); experiment: Human 11β-HSD-2 enzymatic SPA assay; type: biochemical; conditions: human enzyme
T2 sequence (P80365 1-405): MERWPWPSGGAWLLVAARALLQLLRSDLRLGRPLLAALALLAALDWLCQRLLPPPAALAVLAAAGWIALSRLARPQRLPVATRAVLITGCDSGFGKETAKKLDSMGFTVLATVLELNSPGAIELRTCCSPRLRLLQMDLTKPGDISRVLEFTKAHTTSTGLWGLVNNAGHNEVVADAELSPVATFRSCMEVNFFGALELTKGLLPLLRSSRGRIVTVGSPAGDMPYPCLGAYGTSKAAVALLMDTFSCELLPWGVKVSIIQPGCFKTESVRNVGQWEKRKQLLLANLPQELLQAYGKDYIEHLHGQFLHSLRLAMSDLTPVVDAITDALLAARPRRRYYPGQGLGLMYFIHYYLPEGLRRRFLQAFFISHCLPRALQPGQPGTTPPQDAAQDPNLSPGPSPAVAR
Procedure: as §1

Question: “(2E)-3-((E)-4-{[2-(4-Chlorophenoxy)-2-methylpropanoyl]amino}-1-adamantyl)acrylic acid” was tested. Which IC50 [1] did it give?
Answer: 30 nM

Question: What about the IC50 [2] of the same substance?
Answer: > 100000 nM
